# Ab-14 light chain CDR variants: yeast mating affinities

Antigen: PDVDLGDISGINAS, a 14-residue peptide of the SARS-CoV-2 spike HR2 region.

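AAYL50 was designed without a model: most single CDR substitutions and a random sample of double and triple ones. In AlphaSeq, yeast of one mating type display the scFv and yeast of the other type display the target. Mating (16 h, 30 °C) was followed by selection of diploids and sequencing of their barcodes. A regression on co-assayed BCL2-family reference pairs converts the normalised counts of each replicate to an apparent Kd. Mating was done three times.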

The variants keep the heavy chain, the linker and the frameworks of Ab-14 (scFv order VH, three GGGGS repeats, VL).
VH: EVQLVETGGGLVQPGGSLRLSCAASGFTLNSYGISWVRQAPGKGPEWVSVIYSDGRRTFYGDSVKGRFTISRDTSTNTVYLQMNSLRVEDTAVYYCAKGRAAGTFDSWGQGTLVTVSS
VL: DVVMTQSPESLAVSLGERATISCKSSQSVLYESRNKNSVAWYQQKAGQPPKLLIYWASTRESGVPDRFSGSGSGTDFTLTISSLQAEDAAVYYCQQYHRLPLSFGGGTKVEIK

Variants are written as CDR1, CDR2 and CDR3 of the light chain (limits as in the source). Parent: KSSQSVLYESRNKNSVA, WASTRES, QQYHRLPLS.
Values are apparent Kd, the geometric mean of the replicates that gave a signal; lower means stronger binding.
"not detected" means that the variant was in the library but no mating with the target was seen in any replicate; the authors take this as a sign of poor binding, and no number exists.
Empty control strains, which show no peptide, gave a signal in 18% of pairings with library AAYL50; the median was 15 µM and 95% of these signals were weaker than 970 nM. No background was subtracted.

CDR-L1	CDR-L2	CDR-L3	Kd (apparent)	seen in
KSSASVLYESRNKNSVA	WASTREE	QQRHRLPLS	not detected	0/3
PSSQSVLYESRIKNSVA	WASTRES	QQYHRYPLS	not detected	0/3
KSSYSVLYESRNKNSVA	WASTRES	QQMDRLPLS	not detected	0/3
KSSQMVLYESRNKNSVA	WASTCES	QQYKRLPLS	not detected	0/3
VSSQSVLYESRNKNSVA	WASTRVS	QQYFRLPLS	5.0 nM	3/3
TSSQSVLYEVRNKNSVA	WASTRES	QQYHRLHLS	1.9 µM	3/3
QSSQSVLYISRNKNSVA	WASTRTS	QQYHRLPLS	not detected	0/3
KSSQSVLYESRNKQSVE	WASTRES	QQYHRNPLS	140 µM	1/3
KSSQNILYESRNKNSVA	WASTRES	QQYKRLPLS	32 nM	3/3
KSSCSDLYESRNKNSVA	WASTRES	QFYHRLPLS	61 nM	3/3
KSIQSVLYESRIKNSVA	WASTRES	QQEHRLPLS	not detected	0/3
KSSQSVLYEVRNKNSVK	WASTRHS	QQYHRLPLS	not detected	0/3
KSSQSVLYESRNKNSVA	WASTRES	QQYHILKLS	not detected	0/3
KSSQSVLYESRNKNSVA	MASTRWS	DQYHRLPLS	830 nM	1/3
KSSQMVLYESRWQNSVA	WASTRES	QQYHRLPLS	18 nM	3/3
KSSQSVLYESRNICSVA	WASTWES	QQYHRLPLS	not detected	0/3
KCSQSVLYESRNKNSVA	WASTRAC	QQYHRLPLS	8.3 nM	3/3
KSSQSVLYESRNKNGVA	WASTIES	QQDHRLPLS	not detected	0/3
KSSQSDLYESQNKNSVA	WASTRES	PQYHRLPLS	not detected	0/3
CSSQSVLYESRNKNSVA	WASTRES	EQYHQLPLS	4.5 µM	3/3
KSSQSNLYESRNKNSRA	WASTQES	QQYHRLPLS	not detected	0/3
KSSQSVLYESRNKNSVM	WASTRED	QQFHRLPLS	1.6 µM	2/3
KCSQSVNYESRNKNLVA	WASTRES	QQYHRLPLS	5.2 µM	3/3
KSSYQVLYESRNKNSVA	CASTRES	QQYHRLPLS	260 nM	3/3
KSRQSVLYESTNKNSVA	WASRRES	QQYHRLPLS	170 nM	3/3

Further variants, results first:

Kd (apparent)	seen in	CDR-L1	CDR-L2	CDR-L3
110 nM	3/3	KSSQSVDYESRNKNPVA	WASTRES	QQYHRPPLS
66 µM	2/3	KSSQSVLYESRNKNKVA	WASTRQS	QAYHRLPLS
340 µM	1/3	KSSQSVLYESRNKNSVA	WASTRES	VQYHRWILS
1.3 nM	3/3	KSSQEVLDESRNKNSVA	WASTRES	QQYHRLPLS
310 nM	3/3	KSSQSVLYESRFKNSVA	WASTRES	QQYRRNPLS
21 µM	2/3	KSSQSVLYESRNCNSVK	WASTRES	QQYHRLPRS
not detected	0/3	KSSQSVLYELRNKNSVA	WALTRES	QQYHRLPHS
not detected	0/3	KSSQSVLYESRDKNSVA	WASPRES	QVYHRLPLS
350 nM	3/3	KNSPSVLYESRVKNSVA	WASTRES	QQYHRLPLS
12 µM	3/3	KSSQSVLYESRNYNSVA	WASTRES	QQYHCLPLS
9.7 µM	2/3	KSSQSVLYESRRKNCVA	WASTRES	QQYHRLPLS
16 nM	3/3	KSRQSVLYESRNKNSVA	WASTRES	QQYHRLPDP
9.8 nM	3/3	KSSQPVLYESRNKFSVA	WASTRES	QQYFRLPLS
7.2 µM	1/3	KSSYSDLYESRNKNSVA	WASTRES	QQVHRLPLS
770 nM	3/3	KSHQSVHYESRNWNSVA	WASTRES	QQYHRLPLS
12 nM	3/3	KSSQSVLYESRNFNSVA	WASTRES	QQYHRLCLS
5.9 µM	2/3	KSSQSVLYESENKNSVA	WAFTDES	QQYHRLPLS
7.8 µM	1/3	KSSQSVLYQSRNKNFVA	WASTRES	QQYHRLPLL
11 nM	3/3	KSSQSVLYEETNKNSVA	WASTRES	QMYHRLPLS
5.2 µM	2/3	KSSQSVLYESRGKNSVA	VASTRES	QDYHRLPLS
70 nM	3/3	KSSQGVLYESRQKNSVA	WASTRES	QQYHRLPSS
not detected	0/3	KSFQSVLYESRPKNSVA	WASTRES	QQYHFLPLS
170 nM	3/3	KRSHSFLYESRNKNSVA	WASTRES	QQYHRLPLS
77 nM	3/3	KSSQSFLYESRNKNSVA	WQSTREV	QQYHRLPLS
60 µM	1/3	KSSQSVLYESRNKNSDA	WAGTRES	QQYHRLPIS

The last 5 entries again:

CDR-L1,CDR-L2,CDR-L3,Kd (apparent),seen in
KSSQGVLYESRQKNSVA,WASTRES,QQYHRLPSS,70 nM,3/3
KSFQSVLYESRPKNSVA,WASTRES,QQYHFLPLS,not detected,0/3
KRSHSFLYESRNKNSVA,WASTRES,QQYHRLPLS,170 nM,3/3
KSSQSFLYESRNKNSVA,WQSTREV,QQYHRLPLS,77 nM,3/3
KSSQSVLYESRNKNSDA,WAGTRES,QQYHRLPIS,60 µM,1/3

From the AlphaSeq antibody data of Engelhart et al. 2022 (doi:10.1038/s41597-022-01779-4), copy in the FLAb collection.